EC50 data for 2 compounds are collected here from patent US8354403B2, “Pyrrolidine derived beta 3 adrenergic receptor agonists” (Merck Sharp & Dohme Corp., priority 2009, dated 2013).

By UniProt entry, the sequences of proteins in these tests, tags left out.
UniProt P13945, whole entry: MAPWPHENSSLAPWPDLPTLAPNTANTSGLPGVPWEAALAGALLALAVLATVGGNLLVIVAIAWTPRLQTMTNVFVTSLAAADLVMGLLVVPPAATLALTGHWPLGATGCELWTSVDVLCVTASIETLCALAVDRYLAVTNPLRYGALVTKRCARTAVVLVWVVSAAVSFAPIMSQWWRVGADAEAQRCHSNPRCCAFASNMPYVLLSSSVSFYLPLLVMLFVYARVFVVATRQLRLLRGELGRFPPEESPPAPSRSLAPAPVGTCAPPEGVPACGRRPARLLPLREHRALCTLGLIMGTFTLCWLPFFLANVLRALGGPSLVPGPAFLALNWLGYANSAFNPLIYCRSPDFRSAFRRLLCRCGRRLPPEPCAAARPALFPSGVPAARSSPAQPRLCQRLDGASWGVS

This experiment concerns the target human β3 adrenergic receptor (Homo sapiens, UniProt P13945). Briefly: Beta-3 agonist in vitro functional assay: cAMP production (LANCE TR-FRET) in CHO cells stably transfected with the cloned β3 receptor. It is filed as cell-based. Conditions: read-out: Human β3 agonist functional activity; Table 12; human β3 functional activity given as ranges.

On to `CC(c1ccn[nH]1)N1CCN(C(=O)c2ccc(C[C@@H]3CC[C@H]([C@H](O)c4ccccc4)N3)cc2)CC1` (single isomer, unassigned), for which the EC50 was 1 to 9.9 nM.

Consider `O=C(c1ccc(C[C@@H]2CC[C@H]([C@H](O)c3ccccc3)N2)cc1)N1CCN(C2CCCc3cccnc32)CC1` (single isomer, unassigned), for which the EC50 fell in the range of 10 to 99.9 nM.
